Earlier results, collected in patent US20100047176A1, “Method and Kit for Testing Stress Effects in Living Organisms” (AARHUS UNIVERSITET, priority 2007, published 2010).

Tested on: fish and aquatic invertebrates
Conditions: if it reaches water bodies

N#Cc1cc(Br)c(O)c(Br)c1 [Bromoxynil]
toxicity to fish / aquatic invertebrates: potentially harmful to fish and aquatic invertebrates
